Laboratory results: ChEMBL document CHEMBL5579821, “Non-kinase off-target inhibitory activities of clinically-relevant kinase inhibitors” (Eur J Med Chem, 2024)

Protein sequences, listed by entry. Tags and fused reporters are not part of them. Lines headed by an entry give the natural chain unless they say otherwise; changes in a name come on top.
UniProt P36888, whole entry: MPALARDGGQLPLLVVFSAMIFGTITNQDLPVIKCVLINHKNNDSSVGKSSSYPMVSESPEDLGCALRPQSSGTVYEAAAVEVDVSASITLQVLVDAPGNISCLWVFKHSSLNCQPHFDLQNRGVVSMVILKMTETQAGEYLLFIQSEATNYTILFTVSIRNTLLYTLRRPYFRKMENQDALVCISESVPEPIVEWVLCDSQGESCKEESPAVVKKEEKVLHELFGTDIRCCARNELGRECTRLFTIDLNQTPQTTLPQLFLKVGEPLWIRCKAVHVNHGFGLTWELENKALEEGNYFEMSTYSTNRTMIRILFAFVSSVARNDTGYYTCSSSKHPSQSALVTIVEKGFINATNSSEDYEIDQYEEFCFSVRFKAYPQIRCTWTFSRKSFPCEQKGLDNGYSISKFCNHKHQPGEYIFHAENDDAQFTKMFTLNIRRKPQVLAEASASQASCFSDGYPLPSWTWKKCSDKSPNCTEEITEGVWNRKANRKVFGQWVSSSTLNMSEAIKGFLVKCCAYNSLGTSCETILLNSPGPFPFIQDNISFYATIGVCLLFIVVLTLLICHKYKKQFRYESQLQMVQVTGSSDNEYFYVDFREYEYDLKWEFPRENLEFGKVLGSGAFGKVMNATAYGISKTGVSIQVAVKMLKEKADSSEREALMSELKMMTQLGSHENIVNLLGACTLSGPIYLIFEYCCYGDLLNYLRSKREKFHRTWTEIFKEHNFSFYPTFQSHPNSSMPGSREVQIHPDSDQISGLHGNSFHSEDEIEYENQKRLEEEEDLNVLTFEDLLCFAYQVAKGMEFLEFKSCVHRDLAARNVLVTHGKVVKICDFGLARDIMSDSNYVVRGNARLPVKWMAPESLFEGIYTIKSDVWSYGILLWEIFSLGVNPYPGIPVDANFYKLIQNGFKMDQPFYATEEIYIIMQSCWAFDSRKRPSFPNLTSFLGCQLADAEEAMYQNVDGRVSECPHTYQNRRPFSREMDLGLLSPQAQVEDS
UniProt Q99755: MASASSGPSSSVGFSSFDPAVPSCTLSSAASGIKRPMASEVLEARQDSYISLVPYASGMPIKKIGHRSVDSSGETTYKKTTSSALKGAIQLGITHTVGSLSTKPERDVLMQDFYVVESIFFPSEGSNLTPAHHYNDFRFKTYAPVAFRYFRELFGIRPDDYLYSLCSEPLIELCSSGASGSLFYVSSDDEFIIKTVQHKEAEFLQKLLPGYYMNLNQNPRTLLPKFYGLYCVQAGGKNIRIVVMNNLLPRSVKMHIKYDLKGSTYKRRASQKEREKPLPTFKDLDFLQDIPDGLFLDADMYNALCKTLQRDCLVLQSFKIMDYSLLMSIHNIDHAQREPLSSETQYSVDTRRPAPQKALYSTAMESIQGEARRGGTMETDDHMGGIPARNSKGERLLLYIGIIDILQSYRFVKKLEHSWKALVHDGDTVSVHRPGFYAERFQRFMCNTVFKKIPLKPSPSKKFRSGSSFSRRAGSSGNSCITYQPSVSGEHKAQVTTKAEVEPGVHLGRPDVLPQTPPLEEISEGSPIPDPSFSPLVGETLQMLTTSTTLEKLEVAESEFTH
UniProt P10721, whole entry: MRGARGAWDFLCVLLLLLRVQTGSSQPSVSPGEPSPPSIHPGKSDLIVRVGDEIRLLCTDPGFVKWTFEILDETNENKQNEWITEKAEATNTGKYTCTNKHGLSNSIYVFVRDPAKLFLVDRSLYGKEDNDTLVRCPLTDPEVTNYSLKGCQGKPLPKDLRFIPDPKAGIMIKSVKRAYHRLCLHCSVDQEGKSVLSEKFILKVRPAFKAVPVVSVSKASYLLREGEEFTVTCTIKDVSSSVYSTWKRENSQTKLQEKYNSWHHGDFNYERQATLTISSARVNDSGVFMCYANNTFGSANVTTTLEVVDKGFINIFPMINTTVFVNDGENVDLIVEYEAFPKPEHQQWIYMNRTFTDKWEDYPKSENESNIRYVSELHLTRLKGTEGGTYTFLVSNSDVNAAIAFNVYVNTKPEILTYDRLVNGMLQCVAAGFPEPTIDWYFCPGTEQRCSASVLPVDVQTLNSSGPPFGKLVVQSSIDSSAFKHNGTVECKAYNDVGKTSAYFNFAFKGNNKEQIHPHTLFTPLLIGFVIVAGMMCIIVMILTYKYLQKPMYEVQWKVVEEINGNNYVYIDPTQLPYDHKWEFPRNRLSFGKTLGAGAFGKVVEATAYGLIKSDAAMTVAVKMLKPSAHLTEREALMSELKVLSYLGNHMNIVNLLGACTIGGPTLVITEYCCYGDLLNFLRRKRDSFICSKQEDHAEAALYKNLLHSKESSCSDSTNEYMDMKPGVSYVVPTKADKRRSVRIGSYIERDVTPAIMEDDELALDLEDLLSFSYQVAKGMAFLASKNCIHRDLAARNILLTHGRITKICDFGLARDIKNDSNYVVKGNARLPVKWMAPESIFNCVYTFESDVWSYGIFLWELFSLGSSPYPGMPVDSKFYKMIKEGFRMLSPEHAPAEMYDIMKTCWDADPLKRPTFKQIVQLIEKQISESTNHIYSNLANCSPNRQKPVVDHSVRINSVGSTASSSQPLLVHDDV

What was measured:
[1] = target: Receptor-type tyrosine-protein kinase FLT3 (Homo sapiens) (UniProt P36888); test: Inhibition of FLT3 (unknown origin) at 10 uM relative to control
[2] = target: T1, Serine/threonine-protein kinase RIO3 (Homo sapiens) (UniProt O14730); test: Inhibition of RIOK3 (unknown origin) at 10 uM relative to control
T1 sequence (whole entry): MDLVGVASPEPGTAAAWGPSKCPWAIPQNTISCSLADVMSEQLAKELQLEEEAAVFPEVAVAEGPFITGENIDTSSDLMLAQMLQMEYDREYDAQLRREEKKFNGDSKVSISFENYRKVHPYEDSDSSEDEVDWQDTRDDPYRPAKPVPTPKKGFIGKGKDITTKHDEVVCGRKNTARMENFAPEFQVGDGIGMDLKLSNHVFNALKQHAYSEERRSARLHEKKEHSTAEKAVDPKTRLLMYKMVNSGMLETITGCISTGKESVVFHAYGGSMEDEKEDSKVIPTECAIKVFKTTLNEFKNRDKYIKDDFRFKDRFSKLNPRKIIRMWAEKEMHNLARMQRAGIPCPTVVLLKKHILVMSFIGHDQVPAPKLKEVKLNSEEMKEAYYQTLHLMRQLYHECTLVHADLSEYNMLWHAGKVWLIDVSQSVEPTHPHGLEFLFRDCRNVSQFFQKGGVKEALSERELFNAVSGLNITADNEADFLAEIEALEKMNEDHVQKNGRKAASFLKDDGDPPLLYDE

[3] = target: Phosphatidylinositol 4-phosphate 5-kinase type-1 alpha (Homo sapiens) (UniProt Q99755); test: Inhibition of PIP5K1A (unknown origin) at 10 uM relative to control
[4] = target: T2, Serine/threonine-protein kinase RIO1 (Homo sapiens) (UniProt Q9BRS2); test: Inhibition of RIOK1 (unknown origin) at 10 uM relative to control
T2 sequence (whole entry): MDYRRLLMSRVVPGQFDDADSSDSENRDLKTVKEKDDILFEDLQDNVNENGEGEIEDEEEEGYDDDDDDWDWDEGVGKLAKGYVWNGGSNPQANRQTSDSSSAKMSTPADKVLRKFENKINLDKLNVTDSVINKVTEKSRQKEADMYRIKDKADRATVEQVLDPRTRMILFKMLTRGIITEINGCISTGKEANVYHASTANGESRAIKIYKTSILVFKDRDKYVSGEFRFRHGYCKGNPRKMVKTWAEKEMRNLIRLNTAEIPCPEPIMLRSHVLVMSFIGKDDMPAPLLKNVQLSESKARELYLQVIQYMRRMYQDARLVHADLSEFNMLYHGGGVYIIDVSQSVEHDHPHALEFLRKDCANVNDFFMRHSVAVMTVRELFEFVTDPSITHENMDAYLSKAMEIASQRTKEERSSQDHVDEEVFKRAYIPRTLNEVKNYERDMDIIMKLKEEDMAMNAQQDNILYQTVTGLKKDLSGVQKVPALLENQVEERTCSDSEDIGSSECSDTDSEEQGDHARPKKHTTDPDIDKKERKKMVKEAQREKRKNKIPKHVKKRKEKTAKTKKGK

[5] = target: Mast/stem cell growth factor receptor Kit (Homo sapiens) (UniProt P10721); test: Inhibition of c-KIT (unknown origin) at 10 uM relative to control

inhibition [1]: 76%
inhibition [2]: 85%
inhibition [3]: 78%
inhibition [4]: 85%
inhibition [5]: 74%
SMILES: C[C@@H]1CC(=O)NN=C1c1ccc(NN=C(C#N)C#N)cc1
